Reference: US20070032448A1, “Sugar modified nucleosides as viral replication inhibitors” (priority 2002, published 2007)

Experiment: Pharmacokinetics, intravenous and oral dosing
Conditions: in vivo; oral vs intravenous dosing

Structure (SMILES): NC(=O)c1ncn([C@@H]2O[C@H](CO)[C@@H](O)[C@H]2O)n1 [Ribavirin, reference compound]
- bioavailability: 27.1%
